Source: patent US20060211761A1, “Hmg-coa-reductase inhibitors” (priority 2002, published 2006)

Assays:
HMG CoA Reductase = test: HMG CoA reductase inhibition, similar experiments with phenylhydroxy compounds of U.S. Pat. No. 5,385,929, Table 2; type: biochemical; settings: compared to atorvastatin
Procedure: (§1) The compounds described herein have been screened in an in-vitro HMG-CoA reductase enzyme assay as described by Kubo et al., Endocrinology, 120, 214 (1987); and Hellar et al., Biochem. Biophys. Res. Comm., 50, 859 (1973).
(§2) HMG-CoA reductase is regarded as a rate-limiting enzyme in cholesterol biosynthesis, catalyzing the following reaction: [^14C]HMG-CoA+2NADPH+2H+[^14C]mevanolate+CoA+2NADP+microsomes, utilizing 2.5 mM [^14C] HMG-CoA as a substrate.
(§3) The reaction was carried out in presence of 100 mM KH2PO4, 20 mM G-6-P, 2.5 mM NADPH, 10 mM EDTA, 5 mM DTT and […], at 37° C. for 15 minutes and quantitating [^14C] mevalonate as an end product. For IC50 determinations, the compounds were dissolved in 1% dimethylsulfoxide, and were preincubated with liver microsomes at 37° C. for 30 minutes. The activity of several representative examples of particular compounds appears in Table 1, and is compared with that of atorvastatin.
The activities of several phenylhydroxy compounds disclosed in U.S. Pat. No. 5,385,929 were compared to that of atorvastatin in similar experiments, and the results are presented in Table 2.

HMG-CoA reductase = test: in-vitro HMG-CoA reductase enzyme assay ([14C]mevalonate formation, liver microsomes), Table 1; type: biochemical; settings: preincubated 37° C. 30 minutes, [14C] HMG-CoA substrate
Procedure: as §1, §2, §3

CC(C)c1c(C(=O)Nc2ccccc2)c(-c2ccccc2)c(-c2ccc(F)cc2)n1CC[C@@H](O)C[C@@H](O)CC(=O)O [Atorvastatin]
IC50 (HMG CoA Reductase): 0.525 nM | IC50 (HMG-CoA reductase): 0.0646 nM
